# Ab-14 light chain CDR variants: yeast mating affinities

Values reported by Li et al. 2023, doi:10.1038/s41467-023-39022-2 (FLAb copy).

Target peptide (SARS-CoV-2 spike, HR2 region): PDVDLGDISGINAS

Each scFv is VH, three GGGGS repeats, VL, as in the parent Ab-14, and differs from it in the CDRs of the light chain only.
VH: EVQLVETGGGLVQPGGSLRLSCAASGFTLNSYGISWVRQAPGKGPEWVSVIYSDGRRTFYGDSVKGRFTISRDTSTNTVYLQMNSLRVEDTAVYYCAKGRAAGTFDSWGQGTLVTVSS
VL: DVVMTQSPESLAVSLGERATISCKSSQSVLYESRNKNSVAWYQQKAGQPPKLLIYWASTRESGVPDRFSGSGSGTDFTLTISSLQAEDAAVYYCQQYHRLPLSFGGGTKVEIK

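Phage display of a naive human antibody library on the peptide gave the parent. The variants were designed computationally from a first round of random CDR variants and then made and measured. Group labels follow the data file (Ctrl: baseline library sampled from a position-specific scoring matrix, with some repeated check sequences; Rand: our label for a block that the file lists under HC and that is probably the random mutants of the ten best first-round binders; GP: Gaussian process model; HC: hill climbing; Gen: genetic algorithm; Gibbs: Gibbs sampling; a sequence that several methods proposed may carry one label only). In AlphaSeq, yeast of one mating type display the scFv and yeast of the other type display the target. After mating in shaken culture at 30 °C for 16 h, diploids were selected and their barcode pairs sequenced. The ratio of observed to expected reads was calibrated, replicate by replicate, on BCL2-family standards whose Kd was known from biolayer interferometry. Mating was done six times.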

Changes read parent residue, position, new residue, counted from the first residue of the VL shown. This list holds designs with at most six substitutions. The Kd shown is the geometric mean over detected replicates; a lower Kd is a better binder. "no signal" means that the variant was in the library but no mating with the target was seen in any replicate; the authors take this as a sign of poor binding, and no number exists. Three control strains display no target. For all light chain designs, 4% of the pairings with them gave a signal, with a median of 430 nM and one signal in twenty below 38 nM, so weak values seen in few replicates may be background.

Variant S25V/S26Q/V29H/W56D [GP_Gen] gave 400 pM (6 of 6 replicates). For S26L/R34A [Ctrl], the assay gave 540 nM (3 of 6 replicates). Variant S25L/K36S/W56N/S62M [GP_Gen] gave 550 pM (6 of 6 replicates). For K24F/S25L/V29M/W56N [GP_Gen], the assay gave 1.7 nM (6 of 6 replicates). With S25V/V29W/L30P/W56N/T59Q [GP_Gen] the result was 930 pM (6 of 6 replicates). Variant L30P/R34E/W56E [Ctrl] showed 7.3 nM (6 of 6 replicates). For S25V/S26K/S28K/A40C/W56H [Ctrl], the assay gave 9.3 nM (6 of 6 replicates).

For S25F/Q27F/R34H/W56N/E61M [GP_HC], the assay gave 20 nM (6 of 6 replicates). With S33H/N35D/W56S/E61M/S62D [Ctrl] the result was 2.1 nM (5 of 6 replicates). With Q96R [Ctrl] the result was 230 nM (3 of 6 replicates). For S25F/Y31G [Ctrl], the assay gave 4.3 nM (6 of 6 replicates). With Q27I/V29Y/R34L/W56E/T59Q [GP_HC] the result was 2.3 nM (6 of 6 replicates). With S25V/S38A/W56N/T59Q [GP_Gen] the result was 340 pM (6 of 6 replicates). For S25F/L30A/W56N [GP_HC], the assay gave 530 pM (6 of 6 replicates).

Variant S25I/R34T [Ctrl] showed 8.4 nM (6 of 6 replicates). Variant Y31H/W56Q [Ctrl] showed 51 nM (6 of 6 replicates). Variant S58T/E61L/S62A [Ctrl] gave 270 nM (5 of 6 replicates). With S28A/Y31D/N35A/S62T/Y97P [Ctrl] the result was no signal (0 of 6 replicates). With S25W/R34G [Ctrl] the result was 30 nM (6 of 6 replicates). With Q27F/R34H/W56N/E61M [GP_HC] the result was 20 nM (6 of 6 replicates). Variant S25L/V29K/W56D/T59Q [GP_Gen] gave 310 pM (6 of 6 replicates).

With Q27I/V29E/R34M/W56N [GP_HC] the result was 9.0 nM (6 of 6 replicates). For S25I/V29W/L30G/K36S/W56E/Q96D [GP_Gibbs], the assay gave 1.5 nM (6 of 6 replicates). For S33G [Ctrl], the assay gave 88 nM (6 of 6 replicates). Variant S25I/L30G/K36L/A57L/R99P [Ctrl] gave no signal (0 of 6 replicates). Variant S25M/S26L/N35D/W56H/S62D [GP_HC] showed 2.2 nM (6 of 6 replicates). With K24F/S25L/S26M/W56H/T59L/S62D [GP_HC] the result was 8.1 nM (6 of 6 replicates). For Q27Y/V29Y/W56A [GP_HC], the assay gave 1.9 nM (6 of 6 replicates).

Variant V29F/L30D/W56D [GP_Gen] gave 1.1 nM (6 of 6 replicates). With S25L/S26Q/V29D/W56N/T59E [GP_Gen] the result was 2.8 nM (6 of 6 replicates). Variant E61N [Ctrl] showed 36 nM (5 of 6 replicates). Variant S25L/N35M/W56N/Q96D [GP_Gen] gave 1.6 nM (6 of 6 replicates). With S25L/V29M/W56N/T59L [GP_Gen] the result was 400 pM (6 of 6 replicates). Variant S25V/L30P/W56N/E61M [GP_Gen] showed 620 pM (6 of 6 replicates). Variant S25L/S26Q/E32G/W56N [GP_Gen] showed 640 pM (6 of 6 replicates).

For V29E/N35W/W56G/T59Q [GP_HC], the assay gave 1.6 nM (6 of 6 replicates). Variant S25L/V29T/S33Q/K36T/W56Q/T59Q [GP_Gibbs] showed 2.1 nM (6 of 6 replicates). For K24H/S25L/Q27W/S28V/Y31M/W56N [GP_HC], the assay gave 710 pM (6 of 6 replicates). With K24H/Q27E/K36G/W56N/S62K [GP_HC] the result was 1.2 nM (6 of 6 replicates). With K24C/S33A/L102I [Ctrl] the result was 33 nM (1 of 6 replicates). Variant S25I/Y31T/H98K [Ctrl] gave 4.0 nM (6 of 6 replicates). With S25F/S26E/W56N/S103M [GP_Gen] the result was 500 pM (6 of 6 replicates).

Variant Q27I/V29Y/K36T/W56E/Q95H [Rand] showed 4.9 nM (6 of 6 replicates). Variant S25V/L30P/S33E/W56N [GP_Gen] gave 590 pM (6 of 6 replicates). Variant K24N/S25L/V29W/W56G/A57G [GP_HC] gave 410 pM (6 of 6 replicates). Variant S26D/T59M/S103D [Ctrl] gave 110 nM (1 of 6 replicates). With Q27T/V29Y/W56E/A57P [Rand] the result was no signal (0 of 6 replicates). With Q27I/V29H/W56A [GP_HC] the result was 910 pM (6 of 6 replicates). For S25L/S26M/W56N/S62D [GP_Gen], the assay gave 900 pM (6 of 6 replicates).

Top 8 of the variants detected in all replicates, tightest first:

{"changes": "S25L/V29K/W56D/T59Q", "group": "GP_Gen", "Kd": "310 pM", "detected": "6/6"}
{"changes": "S25V/S38A/W56N/T59Q", "group": "GP_Gen", "Kd": "340 pM", "detected": "6/6"}
{"changes": "S25V/S26Q/V29H/W56D", "group": "GP_Gen", "Kd": "400 pM", "detected": "6/6"}
{"changes": "S25L/V29M/W56N/T59L", "group": "GP_Gen", "Kd": "400 pM", "detected": "6/6"}
{"changes": "K24N/S25L/V29W/W56G/A57G", "group": "GP_HC", "Kd": "410 pM", "detected": "6/6"}
{"changes": "S25F/S26E/W56N/S103M", "group": "GP_Gen", "Kd": "500 pM", "detected": "6/6"}
{"changes": "S25F/L30A/W56N", "group": "GP_HC", "Kd": "530 pM", "detected": "6/6"}
{"changes": "S25L/K36S/W56N/S62M", "group": "GP_Gen", "Kd": "550 pM", "detected": "6/6"}

The authors' rule: three or more of the six replicates give a measured affinity, fewer mean a poor binder. A sequence measured in both rounds can read differently, since the two assays cover different ranges.